Test results taken from article PMC5187433, “A bromodomain–DNA interaction facilitates acetylation-dependent bivalent nucleosome recognition by the BET protein BRDT” (Nature Communications, 2016).

Columns and labels:
[1] = target: H4K5acK8ac nucleosome (human); assay: ITC; BET bromodomain proteins (200-260 uM) titrated into nucleosomes (6-11 uM); 20 °C; 20 mM Tris pH 8.0, 150 mM NaCl, 1 mM EDTA, 1 mM TCEP
[2] = target: Chimeric histone H3-H4K5acK8ac nucleosome (human) (UniProt P68431); assay: as above
N-BRDT(1) (Homo sapiens) = N-BRDT(1) (Homo sapiens) (UniProt Q58F21); assay: EMSA; details: EMSA: 20 mM Tris pH 7.5, 100 mM NaCl, 5 mM DTT, 0.5 mM EDTA, 4 C; ITC: 20 mM Tris pH 8.0, 150 mM NaCl, 1 mM EDTA, 1 mM TCEP, 20 C; NMR at 34 C

In the case of “BRD4(1) (from UniProt O60885 44-168) (domain or fragment)”, the Kd [1] is reported as 11.8 µM and the stoichiometry N [1] is reported as 1.52.
Substance “N-BRDT(1) (from UniProt Q58F21 1-143) (domain or fragment)” has a Kd [2] of 4.8 µM, a stoichiometry N [2] of 2.11 and a stoichiometry N [1] of 2.11.
With “TCGGGGGCCGCCCTGGAGAATCCCGGTGCCGAGGCCGCTCAATTGGTCGTAGACAGCTCTAGCACCGCTTAAACGCACGTACGCGCTGTCCCCCGCGTTTTAACCGCCAAGGGGATTACTCCCTAGTCTCCAGGCACGTGTCAGATATATACATCCTGTGCATGTAC / CCGAGTACATGCACAGGATGTATATATCTGACACGTGCCTGGAGACTAGGGAGTAATCCCCTTGGCGGTTAAAACGCGGGGGACAGCGCGTACGTGCGTTTAAGCGGTGCTAGAGCTGTCTACGACCAATTGAGCGGCCTCGGCACCGGGATTCTCCAGGGCGGCCC [167 bp Widom DNA]” the Kd (N-BRDT(1) (Homo sapiens)) was 15 µM.
